# Cneo AK release: Cryptococcus neoformans cell lysis inducers, primary screen, AK release luminescence, single concentration; 0.2% of 360,000 active; AID 651654, 2012; C. neoformans lysis, adenylate kinase release luminescence, 4 h; normalised: neutral wells 0, clomiphene wells 100; lysis activity, % at 15 µM;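 active = mean lysis activity across replicates of at least 80%, whatever share of replicates individually reach that level; inactive = mean lysis activity below 80%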
#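 Signal: Adenylate kinase release luminescence | Assay system: Log-phase Cryptococcus neoformans yeast cells | Input: Cells at 5 × 10^6 per mL | Buffer or medium: Fresh YPD growth medium | Compound: Single dose | Schedule: Static 4 h at 37 °C with compound, 1 h detection | Controls: Clomiphene | Read-out: Luminescence rise reflecting yeast cell lysis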
# HIV Env fusion: inhibitors of HIV-1 Env-driven cell-cell fusion, primary screen, HeLa-JRFL effector, CEM21 target cells, luciferase; inhibition, % at 12.3 µM; 1.1% of 360,000 active;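 active = mean replicate inhibition score of at least 50 and every replicate individually at or above 50; inconclusive = only one of the two criteria met; inactive = mean below 50 and not all replicates reaching 50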
# UUG fidelity: yeast start codon fidelity modulation; activity score, % at 18.7 µM; actives 0.13% (n = 350,000); S. cerevisiae UUG-firefly luciferase reporter, luminescence/redox ratio; AID 602363;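 active means replicate mean at a twofold rise or more, about +100% in these data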;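 further: firefly luciferase made from a UUG start codon reports start codon fidelity; reporter light over untreated wells divided by growth signal over untreated wells; some hits fall short of that in this replicate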
# miR-122 sensor: miR-122 Renilla sensor signal increase in Huh7, primary screen, miR-122 inhibitor project, cell-based, single point, plate reader. Huh7 miR-122 Renilla luciferase sensor, 48 h; neutral wells = 0, positive control = 100. activation (reporter increase), % at 12.5 µM. 0.3% of 340,000 active. AID 602342, 2012;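 active = mean replicate activation score at least 90 and every replicate individually at or above 90; inconclusive = only one of the two criteria met; inactive = neither criterion met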;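 note: higher luciferase means less miR-122 activity so hits act as miR-122 inhibitors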
# FN deposit inh: inhibitors of fibronectin matrix deposition, primary screen, AH1F cells, Alexa488-fibronectin fluorescence, plate reader. 0.086% of 350,000 active. AID 743247, 2014. AH1F fibroblasts, overnight. inhibition, % at 12.6 µM;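 active = mean inhibition across replicates of 30% or more, regardless of how many single replicates reach that level; inconclusive = mean under 30% yet at least half of replicates reach 30%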
#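 Measured by – fluorescence 485/525 nm · System – AH1F fibroblast monolayer, labelled fibronectin deposition · Amount – 10000 cells per well · Buffer or medium – serum-reduced DMEM (2% serum) · Doses – single dose, pinned · Also added – fluorescent fibronectin at 24 nM final · Schedule – 1 h cell attachment, overnight exposure to compound and label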
# PGC1a acetyl inh: inhibitors of PGC1a acetylation signal, primary screen, cell-based, U2OS, AlphaScreen, inhibitor mode; AlphaScreen anti-acetyl-lysine; with virally co-expressed GCN5 acetyltransferase; inhibition, % at 15.6 µM; 0.17% of 350,000 active;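 active = every replicate shows inhibition of at least 40%; inconclusive = mean inhibition at least 40% but some replicate below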
# A number is an active result; - = inactive; ? = inconclusive; . = no result; [ ] = remark or other dose. Only some compounds are listed: those with a hit (about 1.5% of all), similar ones and a draw of the others.
SMILES,Cneo AK release,HIV Env fusion,UUG fidelity,miR-122 sensor,FN deposit inh,PGC1a acetyl inh
COCC(=O)Nc1ccc2c(c1)C(=O)N(C)C[C@H](OC)[C@H](C)CN(Cc1ccccc1)[C@H](C)CO2,-,-,-,-,-,-
COCC(=O)Nc1ccc2c(c1)C(=O)N(C)C[C@@H](OC)[C@H](C)CN(Cc1ccccc1)[C@@H](C)CO2,112.0,-,-,-,-,-
CCCN1C[C@H](C)[C@@H](OC)CN(C)C(=O)c2cc(NC(=O)c3cccc(F)c3)ccc2OC[C@H]1C,116.9,.,-,-,-,-
CO[C@H]1CN(C)C(=O)c2cc(NC(C)=O)ccc2OC[C@H](C)N(Cc2cccc(F)c2)C[C@@H]1C,86.8,-,-,.,-,-
Cc1nc(SCC(=O)Nc2ccc(S(=O)(=O)N3CCOCC3)cc2)c2c(C)c(C)sc2n1,-,64.1,-,.,-,-
O=C(Cn1cnc2cc([N+](=O)[O-])ccc2c1=O)N1CCN(S(=O)(=O)c2ccccc2)CC1,-,-,-,-,-,-
COCC(=O)Nc1ncc(S(=O)(=O)c2ccc([N+](=O)[O-])cc2)s1,.,-,.,.,-,-
O=C(NC(Nc1ncc(S(=O)(=O)c2ccc([N+](=O)[O-])cc2)s1)(C(F)(F)F)C(F)(F)F)c1ccc(Cl)cc1,-,143.5,-,-,-,-
COc1ccc2[nH]c3nc(SCc4nnc(-c5ccc(C)cc5)o4)nnc3c2c1,-,.,-,-,.,-
CCCc1cc(=O)oc2cc(C)cc(OCC(=O)NCc3cccnc3)c12,-,-,-,-,-,-
COc1ccc(OC)c(N(CC(=O)NCCSC2CCCCC2)S(=O)(=O)c2ccccc2)c1,-,58.5,-,-,.,.
COc1ccc(N(CC(=O)NCCSC2CCCCC2)S(=O)(=O)c2ccccc2)c(OC)c1,-,64.1,-,-,-,.
COc1ccccc1S(=O)(=O)N[C@H]1CC[C@@H](CC(=O)N2CCN(C)CC2)O[C@H]1CO,-,57.0[16.7 µM],-,-,-,-
COc1ccc(OCC(=O)NCC(c2cccs2)N2CCOCC2)cc1 (stereo not given),-,-,-,-,-,-
CC(C)(C)c1ccc(OCC(=O)NCC(c2cccs2)N2CCOCC2)cc1 (stereo not given),-,62.3,-,-,-,.
CC(=O)C1=C(O)C(=O)N(c2ccc(O)cc2)C1c1ccc([N+](=O)[O-])cc1 (stereo not given),-,-,-,-,36.0,-
CC(=O)C1=C(O)C(=O)N(c2ccc(C)cc2)C1c1ccc([N+](=O)[O-])cc1 (stereo not given),.,-,.,.,-,.
Cc1ccc(NC(=O)C2C(c3ccccc3)C2(Cl)Cl)c(C)c1 (stereo not given),-,-,-,-,-,70.6
Cc1cccc(NC(=O)C2C(c3ccccc3)C2(Cl)Cl)c1 (stereo not given),.,-,.,.,-,.
O=C(O)C[C@@H]1C=C[C@H](NC(=O)c2ccccc2F)[C@@H](CO)O1,.,-,.,.,-,-
CCC(Oc1ccc(C)cc1)C(=O)Nc1ccc(S(=O)(=O)Nc2cc(C)on2)cc1 (stereo not given),-,-,-,-,-,.
CCC(C)N(C(=O)COC(=O)c1cc([N+](=O)[O-])ccc1N)C1CCS(=O)(=O)C1 (stereo not given),-,70.5,-,-,.,-
CN(C(=O)COC(=O)c1cc([N+](=O)[O-])ccc1Sc1ccccc1)C1CCS(=O)(=O)C1 (stereo not given),-,-,-,-,-,-
O=C(OCCN1CCOCC1)c1cccnc1,-,.,-,-,.,-
CCc1ccc(NS(=O)(=O)c2cc(OC)ccc2OC)cc1,.,.,.,140.2,.,.
SMILES,Cneo AK release,HIV Env fusion,UUG fidelity,miR-122 sensor,FN deposit inh,PGC1a acetyl inh
COC(=O)c1ccc(NS(=O)(=O)c2cc(C)ccc2OC)cc1,-,.,-,149.8,.,-
COc1ccc(C)cc1S(=O)(=O)Nc1ccc(F)cc1,-,-,-,113.4,-,-
CCOc1cc(C)c(S(=O)(=O)Nc2ccc(F)cc2)cc1C,-,-,-,304.0,-,-
COc1ccc(NS(=O)(=O)c2cc(OC)ccc2OC)cc1,-,-,-,?,-,-
COc1ccc(S(=O)(=O)Nc2ccc(S(=O)(=O)Nc3ccc(F)cc3)cc2)cc1C,-,.,-,?,.,-
COc1ccc(OC)c(S(=O)(=O)Nc2ccc(F)cc2)c1,-,.,-,-,.,-
COc1ccc(-c2nc(CS(=O)CC(=O)NCCN3CCCCCC3)c(C)o2)cc1OC (stereo not given),-,-,-,-,-,.
COC(=O)c1ccc(CNC(=O)Cn2cnnn2)cc1,-,-,-,-,-,-
COc1ccc(NC(=O)[C@H](C)NC(N)=O)cc1S(=O)(=O)Nc1cc(C)ccc1Br,-,-,-,-,-,-
Cc1ccc(C)c(S(=O)(=O)Nc2cc3c4c(c2)CC(=O)N4CCC3)c1,-,-,-,163.4,.,-
COc1ccc(NC(=O)C2CCC2)cc1S(=O)(=O)Nc1cc(C)ccc1Br,-,-,-,170.2,.,-
COc1ccc(OC)c(S(=O)(=O)Nc2cc3c4c(c2)CC(=O)N4CCC3)c1,-,-,-,.,-,.
COc1ccc(OC)c(S(=O)(=O)Nc2cc3c4c(c2)CCN4C(=O)CC3)c1,-,-,-,142.8,-,.
O=S(=O)(Nc1ccccc1)c1ccc(-c2cnc(C3CC3)o2)cc1,-,-,-,159.0,-,-
COc1ccc(NS(=O)(=O)c2cc(-c3cnc(C4CC4)o3)ccc2C)cc1,-,-,-,292.9,-,.
Cc1cc(C)cc(NS(=O)(=O)c2ccc(-c3cnc(C4CC4)o3)cc2)c1,-,-,-,375.1,-,-
CCn1c(=S)sc2c(=O)n(-c3ccccc3)c(SCC(=O)NCc3ccco3)nc21,-,-,-,-,-,-
NC(=S)n1[nH]c(-c2ccc([N+](=O)[O-])cc2)c(N=Nc2ccc(O)cc2)c1=O,-,-,-,-,-,-
NC(=S)n1[nH]c(-c2ccc([N+](=O)[O-])cc2)c(N=Nc2cccc(Cl)c2)c1=O,.,57.1,.,-,-,-
COc1ccc(S(=O)(=O)N2CCCCN3[C@H](C2)[C@@H](c2ccc(C#CC4CC4)cc2)[C@@H]3CO)cc1,-,.,-,-,.,-
O=C(CSCc1nc2ccccc2[nH]1)Nc1ccc2ccccc2c1,-,70.6,-,-,-,-
CC(C)(C)NC(=O)C1C(c2ccc(C(F)(F)F)cc2)=Nc2ccccc2N1C(=O)c1cccc(C(F)(F)F)c1 (stereo not given),.,66.7,.,.,-,.
COc1ccc(-c2cnn3c4c(c(C)nc23)CCN4C2CCCC2)cc1OC,-,-,-,-,-,-
